# System: A431 cancer cells
# Experiment: A431 cytotoxicity
# Assay type: cell-based
substance,measurement,value
cisplatin [Compound 11],IC50,7.65 ± 1.4 µM

# — paper PMC2866134 (Bioorganic & medicinal chemistry letters, 2010)
